The numbers were not newly measured in patent US20020165141A1, “Methods for promoting dendritic cell proliferation or differentiation” (priority 2000, published 2002), which cites them from elsewhere.

The data set addresses T1, AT2 receptor (Homo sapiens, UniProt P50052).
T1 sequence (P50052 1-363): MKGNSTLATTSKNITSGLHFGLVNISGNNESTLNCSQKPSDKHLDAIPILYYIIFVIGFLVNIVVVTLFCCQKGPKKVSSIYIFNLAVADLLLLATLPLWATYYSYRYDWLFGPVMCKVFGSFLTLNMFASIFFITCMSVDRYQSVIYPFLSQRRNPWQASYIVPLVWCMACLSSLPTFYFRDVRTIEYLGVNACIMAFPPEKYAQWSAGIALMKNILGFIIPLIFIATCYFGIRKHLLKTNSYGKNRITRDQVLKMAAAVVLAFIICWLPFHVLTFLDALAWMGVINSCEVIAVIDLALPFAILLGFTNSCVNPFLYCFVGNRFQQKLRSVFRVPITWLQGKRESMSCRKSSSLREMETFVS
As to conditions: experimental models of the literature; cited from earlier work.

As to “Asp-Arg-Val-Tyr-Ile-Xaa-Pro-Phe [p-aminophenylalanine6-AII]”, the binding characteristics result was “comparable to AT2 antagonists”.
